Data as given in patent US20250388560A1, “AROMATIC COMPOUND AND USE THEREOF” (HITGEN INC., priority 2023, published 2025).

Chains of the proteins cited; added tags and fusions are not shown.
UniProt P19474, whole entry: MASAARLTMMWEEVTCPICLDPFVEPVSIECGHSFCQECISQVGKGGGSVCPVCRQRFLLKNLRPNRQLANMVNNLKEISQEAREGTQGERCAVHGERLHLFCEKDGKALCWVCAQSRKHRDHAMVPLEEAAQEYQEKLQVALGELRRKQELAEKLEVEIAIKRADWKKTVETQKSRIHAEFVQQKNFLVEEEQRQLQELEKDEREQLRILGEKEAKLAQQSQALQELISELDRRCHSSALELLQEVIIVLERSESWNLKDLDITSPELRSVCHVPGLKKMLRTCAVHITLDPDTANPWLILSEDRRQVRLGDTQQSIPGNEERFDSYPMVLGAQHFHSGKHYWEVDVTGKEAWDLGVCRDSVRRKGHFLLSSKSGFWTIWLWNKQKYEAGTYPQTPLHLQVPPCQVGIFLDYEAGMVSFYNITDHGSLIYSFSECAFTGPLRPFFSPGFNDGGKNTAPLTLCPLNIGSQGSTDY

Molecular target: TRIM21 protein (Homo sapiens (Human), UniProt P19474)
Experiment: SPR binding assay (Biacore 8K) of compounds to immobilised TRIM21 protein
Conditions: read-out: TRIM21 Kd Test Value, 25° C., steady state affinity model (1:1 binding model)

## CN(CC1CCCCC1)C(=O)c1ccc(C2CCCCC2)cc1S(C)(=O)=O
  Kd: > 10 µM
